## Antibody variant affinities, Ab-14 heavy chain, assay B

Target peptide (SARS-CoV-2 spike, HR2 region): PDVDLGDISGINAS

Ab-14 is the parent antibody, in scFv form: VH, then a 15-residue (Gly4Ser)3 linker, then VL. The light chain is unchanged in all variants.
VH: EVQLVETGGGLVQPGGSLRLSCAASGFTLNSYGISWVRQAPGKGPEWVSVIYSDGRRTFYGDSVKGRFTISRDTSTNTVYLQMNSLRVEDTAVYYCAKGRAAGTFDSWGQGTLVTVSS
VL: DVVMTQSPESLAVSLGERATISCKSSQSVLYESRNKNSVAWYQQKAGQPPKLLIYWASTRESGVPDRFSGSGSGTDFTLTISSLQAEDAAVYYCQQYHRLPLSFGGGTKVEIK

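Phage display of a naive human antibody library on the peptide gave the parent. These sequences belong to a second round, designed from the earlier measurements on random variants of the parent. Several design methods are mixed in this list. Affinity was read by AlphaSeq, a pooled yeast mating assay with surface-displayed partners. The frequency of each diploid, read from paired DNA barcodes, reflects how well the two displayed proteins bind. A regression on co-assayed BCL2-family reference pairs converts the normalised counts of each replicate to an apparent Kd. Each pool was mated in six replicate cultures.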

The parent's heavy chain CDRs are GFTLNSYGIS, VIYSDGRRTFYGDSVK, GRAAGTFDS; each variant's own CDRs replace them letter for letter. This list holds designs with more than six substitutions. Each Kd is an estimate from the mating assay, the geometric mean of the replicates in which the pair was seen; lower is stronger. "nd" marks a missing value. The strain was present, yet no cells mated with the target were sequenced in any replicate, which points to weak or no binding. The authors' rule: three or more of the six replicates give a measured affinity, fewer mean a poor binder. Of ten entries with the parent sequence, four were seen in most replicates (averages 2.2 nM to 240 nM), three in one and three in none, so single entries are noisy. The range of this assay differs from that of the first round, and the authors advise against merging the two. Background: pairings of all heavy chain designs with three empty control strains gave a value in 1% of cases (median 120 nM, 5th percentile 7.0 nM). Values in that range, when seen in few replicates, are hard to tell from nonspecific mating.

Variant GFDLNEYGIS | VIYADGVRTVYADSVK | GNNAGTFDV gave 980 pM (6 of 6 replicates).
Variant GFDLDEYGIS | VIYADGMRTFYADSVK | GNQAGTFDS gave 300 pM (6 of 6 replicates).
Variant GFDLNEYGIS | VIYADGKRTYYADSVK | GNNAGTFDV gave 310 pM (6 of 6 replicates).
Variant GFDLNEYGIS | VIYADGRRTAYQDSVK | GENAGTFDV gave 810 pM (6 of 6 replicates).
Variant GFDLNEYGIS | VIYADGMRKAYADSVK | GNNAGTFDM gave nd (0 of 6 replicates).
Variant GFNLDEFGIS | VIYADGMRTVYSQDVK | GQNVEFTVV gave nd (0 of 6 replicates).
Variant GFDLDEYGIS | VIYADGKRTAYADSVK | GEVAGTFDI gave 340 pM (6 of 6 replicates).
Variant GFNLNEYGIS | VIYADGRRTFYADSVK | GQIAGTFVV gave 39 nM (5 of 6 replicates).
Variant GFDLNEYGIS | VIYADGMRTAYIDSVK | GQNAGTFDI gave 150 pM (6 of 6 replicates).
Variant GFDLDEYGIS | VIYADGRRTFYQDSVK | GQNAGTFDM gave 300 pM (6 of 6 replicates).
Variant GFDLNEYGIS | VIYADGVRTQYIDSVK | GEVAGTFDA gave 4.7 nM (4 of 6 replicates).
Variant GFDLNEYGIS | VIYADGMRTAYADSVK | GNVAGTFVM gave 980 pM (6 of 6 replicates).
Variant GFDLNEYGIS | VIYADGMRTAYSDNVK | GQVAGTFDV gave 240 pM (6 of 6 replicates).
Variant GFDLNEYGIS | VIYADGMRTAYSDSVK | GNHAGTFDI gave 200 pM (6 of 6 replicates).
Variant EFEIQDYGIS | VIYADGFRTAYAESVK | GNMGGTFST gave 130 nM (4 of 6 replicates).
Variant GFDLNEYGIS | VIYADGMRSAYADSVK | GQNAGTFDV gave 180 pM (6 of 6 replicates).
Variant GFDLNEYGIS | VIYADGMRTAYSDNVK | GQVAGTFDI gave 220 pM (6 of 6 replicates).
Variant GMSLGEYGIS | VIYADGERVNYTNNFK | GVMAGTFDV gave 1.8 µM (1 of 6 replicates).
Variant GFDLNEYGIS | VIYADGMRTAYADTVK | GNVAGTFDQ gave 410 pM (6 of 6 replicates).
Variant GFDLNEYGIS | VIYADGVRTAYSDSVK | GEVAGTFDI gave 650 pM (6 of 6 replicates).
Variant GFDLNEYGIS | VIYADGMRTAYSDSVK | GEVAGTFVS gave 1.2 nM (6 of 6 replicates).
Variant GFDLNEYGIS | VIYADGMRTAYADDVK | GQVAGTFDM gave 180 pM (6 of 6 replicates).
Variant GFDLDEYGIS | VIYADGKRTAYSDSVK | GNTAGTFDI gave 450 pM (6 of 6 replicates).
Variant GFNLDEYGIS | VIYADGRRTFYSDNVK | GEIAGTFDI gave 530 pM (6 of 6 replicates).
Variant GYDLMEYGIS | VIYADGRRVYYIDDVK | GHVSGHFLL gave nd (0 of 6 replicates).
Variant GFDLNEYGIS | VIYADGVRSFYADNAK | GNAGIFAEV gave nd (0 of 6 replicates).
Variant GQNLDEYGIS | VIYADGQRVSYDDPVK | GEQGGTVMV gave nd (0 of 6 replicates).
Variant GFDLNEYGIS | VIYADGRRTYYSDSVK | GQNAGTFDI gave 170 pM (6 of 6 replicates).
Variant GFSLEEYGIS | VIYADGSRTSYQESVK | GLYIGMLDV gave nd (0 of 6 replicates).
Variant GFNINEYGIS | VIYADGQRLSYDDNVK | GEITGTFLS gave 2.3 nM (6 of 6 replicates).
Variant GFDLEDYGIS | VIYADGRRTAYSDSVK | GEAAGTFDS gave 1.5 nM (6 of 6 replicates).
Variant GFDLNEYGIS | VIYADGRRTAYADSVK | GNQAGTFDL gave 1.7 nM (6 of 6 replicates).
Variant GFDINEYGIS | VIYADGFRTAYVQQVK | GQHLGSVEV gave nd (0 of 6 replicates).
Variant GFNLDEYGVS | VIYADGKRTVYHDSVK | GKRLGVKLN gave nd (0 of 6 replicates).

Top 2 of the variants detected in all replicates, tightest first:

| CDR-H1 | CDR-H2 | CDR-H3 | Kd | replicates with signal |
|---|---|---|---|---|
| GFDLNEYGIS | VIYADGMRTAYIDSVK | GQNAGTFDI | 150 pM | 6 of 6 |
| GFDLNEYGIS | VIYADGRRTYYSDSVK | GQNAGTFDI | 170 pM | 6 of 6 |

Data: MIT Lincoln Laboratory AlphaSeq set, Li et al. 2023, doi:10.1038/s41467-023-39022-2, as distributed in FLAb.